Bioassay records (PubChem BioAssay)
Rows were chosen to be rich in hits. Some 16% of all compounds tested hit in one or more screens of this group.
DT40 TDP1 no CPT = qHTS for Inhibitors of human tyrosyl-DNA phosphodiesterase 1 (TDP1): qHTS in cells in absence of CPT; 420,000 tested, 15% active; DT40 Tdp1-/- hTDP1 cells, no CPT, ATP luminescence, 48 h; Potency, µM (doses to about 46.2 µM), inactives show at the top dose activity change, negative = growth inhibition, hits mostly inhibitors; AID 686978, 2013; further: potency means the concentration at half of the fitted maximal effect; on the % scale 0 is the no-effect control and ±100 the full control effect; nearly all actives have a fitted effect of over 55% in size
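Chicken DT40 Tdp1-/- cells complemented with human TDP1, screened without camptothecin (DMSO vehicle only), 400 cells/well. Compounds pin-transferred, cells incubated at 37 °C for at least 48 hr. Growth read as ATP-dependent luminescence (CellTiter-Glo, 30 min at RT).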
miR-21 FLuc = miR-21 reporter, rising signal | 340,000 tested, under 10 active | AID 2288 | HeLa miR-21 FLuc reporter, luciferase, 48 h | Potency, µM (titrated, usually from 38.3 µM), for inactives: at the highest dose reporter change, positive = more light; active = well fitted rising curve with a large enough effect; inconclusive = small, poorly fitted or top-dose-only effect; inactive = no such curve, though single readings can be large or run the other way;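 further: % of control where 0% means no effect; miR-21 action dims this reporter so a rising signal means less miR-21 action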
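HeLa cells endogenously expressing miR-21, stably carrying CMV-driven firefly luciferase with a downstream miR-21 binding site, 2000 cells/well. Titrations up to approximately 40 uM, 48 hours; luciferase luminescence read.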
TDP1 block = blocks human tyrosyl-DNA phosphodiesterase 1 | Q9NUW8 | Potency, µM (highest dose often 130 µM), without a hit: at the highest dose activity change, negative = inhibition, most hits filed as inhibitors | AID 485290 | 350,000 tested, 0.28% active | recombinant TDP1, AlphaScreen DNA substrate cleavage; further: potency means the concentration at half of the fitted maximal effect; on the % scale 0 is the no-effect control and ±100 the full control effect; nearly all actives have a fitted effect of over 40% in size
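Here, a 5' biotin and 3' phosphotyrosine-FITC DNA oligonucleotide reports Tdp1 activity: intact substrate bridges AlphaScreen beads, while cleavage leaves a 3' phosphate and drops signal. All incubations at room temperature.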
uPA surface inh = cell surface uPA generation inhibition | cell surface uPA generation assay, qHTS | 330,000 tested, 0.31% active | Potency, µM (titrated, usually from 38.3 µM), inactives show at the top dose activity change, negative = inhibition, actives largely listed as inhibitors; active means well fitted inhibition curve with a large enough effect; inconclusive means small, poorly fitted or top-dose-only effect; inactive means no such curve, though single readings can be large or run the other way; tested in mouse RAW 264.7 cells; further: potency means the concentration at half of the fitted maximal effect; on the % scale 0 is the no-effect control and ±100 the full control effect; nearly all actives have a fitted effect of over 55% in size
DT40 TDP1 CPT = growth inhibition of DT40 Tdp1-/-;hTDP1 cells with camptothecin (screen for TDP1 inhibitors); chicken DT40 Tdp1-/-;hTDP1 cells + 20 nM CPT, ATP luminescence, 48 h; Potency, µM (titrated, usually from 46.2 µM), without a hit: at the top dose activity change, negative = growth inhibition, actives largely listed as inhibitors; 420,000 tested, 12% active; AID 686979; further: potency means the concentration at half of the fitted maximal effect; on the % scale 0 is the no-effect control and ±100 the full control effect; nearly all actives have a fitted effect of over 55% in size
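Chicken DT40 Tdp1-/- cells stably complemented with human TDP1 were seeded at 400 cells/well in medium containing 20 nM camptothecin, exposed to pin-transferred compounds, and grown at 37 °C for at least 48 hr. Viability was read as ATP luminescence.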
Numbers without * were called inactive. Unless noted, the call rests on the fitted dose curve; in most records, active means well fitted curve in the direction sought with a large enough effect; inconclusive means small, poorly fitted or top-dose-only effect, or another doubt; inactive means no such curve, though single readings can be large; an effect the other way counts as inactive or inconclusive.

Results for Cc1cc(C)c(NC(=O)/C=C\C(=O)O)c([N+](=O)[O-])c1 ?
DT40 TDP1 no CPT: inconclusive; miR-21 FLuc: -0.7%; TDP1 block: 2.8%; uPA surface inh: -4.7%; DT40 TDP1 CPT: inconclusive

What do the screens show for `CCCCOC(=O)CCc1n[nH]c(=O)[nH]c1=O`?
DT40 TDP1 no CPT: -2.9%; miR-21 FLuc: -2.2%; TDP1 block: 1.9%; uPA surface inh: 2.9%; DT40 TDP1 CPT: 6.6%

What do the screens show for `Cc1cn2c(=O)cc(COC(=O)c3ccc(NC(=O)c4ccc(F)cc4)cc3)nc2s1`?
DT40 TDP1 no CPT: inconclusive; miR-21 FLuc: -5.9%; TDP1 block: -3.8%; DT40 TDP1 CPT: inconclusive

How did O=C(O)c1cccc(-n2c(/C=C/c3ccc([N+](=O)[O-])cc3)nc3ccccc3c2=O)c1 do in these assays?
DT40 TDP1 no CPT: -19.5%; miR-21 FLuc: -1.5%; TDP1 block: 6.1%; uPA surface inh: -1.9%; DT40 TDP1 CPT: inconclusive

What do the screens show for `COc1ccc(-n2c(/C=C/c3cccc4ccccc34)nc3ccccc3c2=O)cc1Cl`?
DT40 TDP1 no CPT: 20.6µM*; miR-21 FLuc: -4.1%; TDP1 block: 5.2%; DT40 TDP1 CPT: 20.6µM*

How did O=C(CSc1nnc2n(C3CCCCC3)c(=O)c3ccccc3n12)OC1CCCCC1 do in these assays?
DT40 TDP1 no CPT: inconclusive; miR-21 FLuc: -0.3%; TDP1 block: 0.0%; uPA surface inh: 12.2%; DT40 TDP1 CPT: inconclusive

Results for O=C1COc2ccc(C(=O)COC(=O)c3cc(S(=O)(=O)NCc4ccccc4)ccc3O)cc2N1 ?
DT40 TDP1 no CPT: 0.0%; miR-21 FLuc: -0.7%; uPA surface inh: -25.6%; DT40 TDP1 CPT: -3.4%

How did O=C(C=Cc1ccccn1)c1ccccc1 do in these assays?
DT40 TDP1 no CPT: 2.91µM*; uPA surface inh: -16.5%; DT40 TDP1 CPT: 3.26µM*

How did Cc1ccc(C(=O)/C=C/Nc2ccccn2)cc1 do in these assays?
DT40 TDP1 no CPT: -7.4%; uPA surface inh: -7.3%; DT40 TDP1 CPT: -25.5%

How did O=C(C=Cc1ccccn1)c1ccccc1O do in these assays?
DT40 TDP1 no CPT: 3.66µM*; uPA surface inh: -2.7%; DT40 TDP1 CPT: 2.91µM*

Among those listed so far, 2 contain a COOH group:
Results for Cc1cc(C)c(NC(=O)/C=C\C(=O)O)c([N+](=O)[O-])c1 ?
DT40 TDP1 no CPT: inconclusive; miR-21 FLuc: -0.7%; TDP1 block: 2.8%; uPA surface inh: -4.7%; DT40 TDP1 CPT: inconclusive

How did O=C(O)c1cccc(-n2c(/C=C/c3ccc([N+](=O)[O-])cc3)nc3ccccc3c2=O)c1 do in these assays?
DT40 TDP1 no CPT: -19.5%; miR-21 FLuc: -1.5%; TDP1 block: 6.1%; uPA surface inh: -1.9%; DT40 TDP1 CPT: inconclusive

Following part:
How did Cc1ccc(C(C)(C)C)c(OCCOCCN2CCCC2)c1 do in these assays?
DT40 TDP1 no CPT: inconclusive; miR-21 FLuc: -0.1%; TDP1 block: 0.0%; uPA surface inh: 1.4%; DT40 TDP1 CPT: 14.6µM*

How did CC(C)(C)c1ccccc1OCCOCCN1CCCCCC1 do in these assays?
DT40 TDP1 no CPT: 14.6µM*; miR-21 FLuc: -7.9%; TDP1 block: 0.0%; uPA surface inh: -1.7%; DT40 TDP1 CPT: inconclusive

What do the screens show for `Cc1ccccc1OCCCN1CCCC1`?
DT40 TDP1 no CPT: 14.2%; miR-21 FLuc: -3.0%; TDP1 block: -5.9%; DT40 TDP1 CPT: -9.0%

Results for CCC(C)c1ccccc1OCCOCCN1CCCC1 (centres undefined) ?
DT40 TDP1 no CPT: inconclusive; miR-21 FLuc: -4.8%; TDP1 block: -2.6%; uPA surface inh: 3.1%; DT40 TDP1 CPT: inconclusive

What do the screens show for `Cc1ccc(OCCOCCN2CCCCC2)c([N+](=O)[O-])c1`?
DT40 TDP1 no CPT: -0.4%; miR-21 FLuc: -4.6%; TDP1 block: 1.2%; uPA surface inh: -3.4%; DT40 TDP1 CPT: 8.8%

What do the screens show for `Cc1ccccc1OCCN1CCCC1`?
DT40 TDP1 no CPT: 4.3%; miR-21 FLuc: -4.4%; TDP1 block: 79.4µM*; uPA surface inh: -19.1%; DT40 TDP1 CPT: -14.5%

What do the screens show for `COCCOc1ccc(C(F)(F)F)cc1Nc1nc2ccccc2o1`?
DT40 TDP1 no CPT: inconclusive; miR-21 FLuc: -26.5%; TDP1 block: -3.1%; uPA surface inh: -1.2%; DT40 TDP1 CPT: inconclusive

How did Cc1ccccc1OCCCCn1c(CCNC(=O)C(C)(C)C)nc2ccccc21 do in these assays?
DT40 TDP1 no CPT: 8.2µM*; miR-21 FLuc: 14.1%; TDP1 block: 6.1%; DT40 TDP1 CPT: 13µM*

Results for Cc1cc(OCCCn2c(CCNC(=O)C3CCCCC3)nc3ccccc32)ccc1Cl ?
DT40 TDP1 no CPT: 7.31µM*; miR-21 FLuc: inconclusive; TDP1 block: 5.1%; DT40 TDP1 CPT: 6.51µM*

What do the screens show for `COc1ccc(OCCn2c(CCNC(=O)C3CCCCC3)nc3ccccc32)cc1`?
DT40 TDP1 no CPT: 12.6µM*; TDP1 block: 0.0%; DT40 TDP1 CPT: inconclusive

How did COc1ccccc1OCCn1c(CCNC(=O)C2CCCCC2)nc2ccccc21 do in these assays?
DT40 TDP1 no CPT: inconclusive; TDP1 block: -4.8%; DT40 TDP1 CPT: inconclusive

Results for O=C(NCCc1nc2ccccc2n1CCCOc1ccccc1)C1CCCCC1 ?
DT40 TDP1 no CPT: 11.2µM*; TDP1 block: 1.0%; DT40 TDP1 CPT: 10µM*

What do the screens show for `CCc1ccc(OCCCn2c(CCNC(=O)C3CCCCC3)nc3ccccc32)cc1`?
DT40 TDP1 no CPT: -21.1%; TDP1 block: -9.7%; DT40 TDP1 CPT: inconclusive

Results for Cc1ccc(OCCCn2c(CCNC(=O)C3CCCCC3)nc3ccccc32)c(C)c1 ?
DT40 TDP1 no CPT: inconclusive; miR-21 FLuc: -4.0%; TDP1 block: 0.0%; DT40 TDP1 CPT: inconclusive

What do the screens show for `Cc1cccc(C)c1OCCCn1c(CCNC(=O)C2CCCCC2)nc2ccccc21`?
DT40 TDP1 no CPT: 18.4µM*; miR-21 FLuc: inconclusive; TDP1 block: 3.2%; DT40 TDP1 CPT: 14.6µM*

What do the screens show for `Cc1ccc(S(N)(=O)=O)cc1NC(=O)c1c(-c2c(Cl)cccc2Cl)noc1C`?
DT40 TDP1 no CPT: 0.2%; miR-21 FLuc: -1.7%; TDP1 block: 4.2%; DT40 TDP1 CPT: -14.1%

How did Cn1c(=O)c2[nH]c(N3CCN(c4ccccn4)CC3)nc2n(C)c1=O do in these assays?
miR-21 FLuc: 7.7%; TDP1 block: 0.0%

What do the screens show for `Cn1c(=O)c2[nH]c(N3CCCCC3)nc2n(C)c1=O`?
DT40 TDP1 no CPT: 1.0%; miR-21 FLuc: 0.1%; TDP1 block: 2.7%; uPA surface inh: -1.0%; DT40 TDP1 CPT: 20.6µM*

What do the screens show for `O=C(NCCCc1ccncc1)C1CCC(=O)N(Cc2cccc(C(F)(F)F)c2)C1` (centres undefined)?
DT40 TDP1 no CPT: -6.0%; miR-21 FLuc: -0.8%; TDP1 block: 3.6%; uPA surface inh: -1.5%; DT40 TDP1 CPT: -0.2%

Results for Cc1ccc(Oc2ncccc2C(=O)NCC(=O)O)cc1 ?
DT40 TDP1 no CPT: -4.3%; miR-21 FLuc: -4.1%; TDP1 block: 0.0%; uPA surface inh: 5.0%; DT40 TDP1 CPT: 3.7%

What do the screens show for `COc1ccc(C(=O)OCC(=O)c2ccc3c(c2)NC(=O)CO3)cc1[N+](=O)[O-]`?
DT40 TDP1 no CPT: -9.3%; TDP1 block: -0.7%; uPA surface inh: -1.5%; DT40 TDP1 CPT: 4.0%

What do the screens show for `CCCCc1ccc(NC(=O)N[C@@H](C)C(=O)O)cc1`?
DT40 TDP1 no CPT: 5.17µM*; miR-21 FLuc: 0.4%; TDP1 block: 0.0%; uPA surface inh: -1.3%; DT40 TDP1 CPT: 4.61µM*
